# Measurements: PubChem BioAssay AID1469 (National Center for Advancing Translational Sciences (NCATS), 2008)
# Chains of the proteins cited; added tags and fusions are not shown.
# UniProt P10828, whole entry: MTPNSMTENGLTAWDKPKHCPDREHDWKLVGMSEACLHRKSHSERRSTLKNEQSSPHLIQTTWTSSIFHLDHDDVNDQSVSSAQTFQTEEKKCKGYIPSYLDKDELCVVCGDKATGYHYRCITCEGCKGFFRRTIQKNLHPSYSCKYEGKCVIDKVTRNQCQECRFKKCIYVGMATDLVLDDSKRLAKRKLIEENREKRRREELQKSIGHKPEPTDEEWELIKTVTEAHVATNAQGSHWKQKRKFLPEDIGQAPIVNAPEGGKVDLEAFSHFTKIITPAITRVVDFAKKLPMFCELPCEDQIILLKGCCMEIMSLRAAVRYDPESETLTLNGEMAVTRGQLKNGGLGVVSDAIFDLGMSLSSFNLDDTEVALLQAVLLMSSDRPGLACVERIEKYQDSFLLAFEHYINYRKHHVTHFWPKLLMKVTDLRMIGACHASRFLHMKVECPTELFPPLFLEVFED
# Only a part is listed here, and it is no random draw. Active and inactive are the calls of the source. Calls follow the shape of the dose curve; as a rule, active = well fitted inhibition curve with a large enough effect; inconclusive = small, poorly fitted or top-dose-only effect, or effect the other way; inactive = flat fitted curve, though single readings scatter.
# Biological target: Thyroid hormone receptor beta (Homo sapiens) (UniProt P10828)
# Experiment: qHTS for Inhibitors of the Interaction of Thyroid Hormone Receptor and Steroid Receptor Coregulator 2;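 also: plate controls were bound peptide for no effect and peptide without receptor for full effect; nearly all actives have a fitted effect of over 50% in size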
# Conditions: TRbeta-SRC2 peptide binding, fluorescence polarization, receptor liganded with 1 µM T3
# Excerpt: NIH Molecular Libraries Probe Production Network [MLPCN]
# NIH Chemical Genomics Center [NCGC]
# Assay Provider: R. Kip Guy, St. Jude Children's Research Hospital
# Thyroid receptor (TR) regulates many homeostatic processes including basal metabolism, cardiovascular function, body weight, and lipid trafficking. TR modulators are potential therapeutics for obesity and hyperlipidemias but current thyroid analogs have undesirable side effects, particularly cardiac stimulation. To identify inhibitors that specifically prevent the interaction of TR with the steroid receptor coregulator 2 (SRC2), a fluorescence polarization assay was screened. This assay detects interaction of the ligand-binding domain of human TRb with a Texas Red labeled SRC2 peptide, corresponding to a 20 amino acid region of the nuclear receptor interaction domain (Arnold et al., 2006). Small molecule inhibitors that block the interaction of TR and SRC2 are detected by a decrease in fluorescence polarization.
# Arnold, L. A.; Estebanez-Perpina, E.; Togashi, M.; Shelat, A.; Ocasio, C. A.; McReynolds, A. C.; Nguyen, P.; Baxter, J. D.; Fletterick, R. J.; Webb, P.; Guy, R. K. A high-throughput screening method to identify small molecule inhibitors of thyroid hormone receptor coactivator binding. Sci STKE 2006, p 13.
# NCGC Assay Protocol Summary:
# For screening, 5 uL/well 0.6 uM TRb and 20 nM SRC2 Texas Red in protein buffer (20mM Tris hydrochloride, 100mM NaCl, 10% glycerol, 1mM EDTA, 0.01% NP-40, 1mM DTT, 1uM T3 and 5% DMSO) was dispensed into black solid 1536-well plates (Grenier) using a solenoid-based dispenser. Following transfer of 23 nL compound or DMSO vehicle by a pin tool, the plates were centrifuged 15 s at 1000 RPM and incubated 5 hr at ambient temperature. […] Data were normalized to unbound (all components except TRb) and bound SRC2 Texas Red controls. In this assay, we provide % activity data for each concentration as well as potencies for the active compounds.
# Keywords: NIH Roadmap, MLPCN, MLI, MLSMR, qHTS, NCGC, qHTS, thyroid hormone receptor, steroid receptor coactivator, fluorescence polarization
structure (smiles),measurement,setting,value
CN1CCCCC1COC(=O)C1(O)c2ccccc2CCc2ccccc21 (stereo not given),"activity change, negative = inhibition",at 106 µM (top of the series),inactive: -2.36%
CCCOc1ccc(NP(C)(=O)Oc2ccc(Cl)cc2)cc1 (stereo not given),"activity change, negative = inhibition",at 106 µM (top of the series),inactive: 3.93%
CP(=O)(Nc1ccc(SC(F)(F)F)cc1)Oc1ccccc1 (stereo not given),"activity change, negative = inhibition",at 106 µM (top of the series),inactive: -0.84%
O=[N+]([O-])c1cccc([N+](=O)[O-])c1,"activity change, negative = inhibition",at 106 µM (top of the series),inactive: 0.66%
same,"activity change, negative = inhibition",at 201 µM (top of the series),inactive: 2.08%
CCOP(=S)(CC)Oc1cc(Cl)c(Cl)cc1Cl (stereo not given),"activity change, negative = inhibition",at 201 µM (top of the series),inactive: 0.422%
Cc1ccc([N+](=O)[O-])cc1[N+](=O)[O-],"activity change, negative = inhibition",at 106 µM (top of the series),inactive: 0.474%
same,"activity change, negative = inhibition",at 201 µM (top of the series),inactive: -4.89%
CC1=NCCc2c1[nH]c1ccccc21.O=[N+]([O-])c1cc([N+](=O)[O-])c(O)c([N+](=O)[O-])c1,"activity change, negative = inhibition",at 106 µM (top of the series),inactive: -3.63%
COc1ccccc1OP(C)(=O)Nc1cccc(Br)c1 (stereo not given),"activity change, negative = inhibition",at 106 µM (top of the series),inactive: 9.55%
Cc1cc(C)cc(OP(C)(=O)Nc2ccc(C)cc2C)c1 (stereo not given),"activity change, negative = inhibition",at 106 µM (top of the series),inactive: 6.11%
CCOC(=O)c1ccc(NP(C)(=O)Oc2cc(C)cc(C)c2)cc1 (stereo not given),"activity change, negative = inhibition",at 106 µM (top of the series),inactive: 8.52%
Cc1cc(C)cc(OP(C)(=O)Nc2ccccn2)c1 (stereo not given),"activity change, negative = inhibition",at 106 µM (top of the series),inactive: -0.399%
CP(=O)(Nc1cccc(Br)c1)Oc1ccccc1 (stereo not given),"activity change, negative = inhibition",at 106 µM (top of the series),inactive: 7.23%
Cc1ccc(C)c(NP(C)(=O)Oc2ccccc2)c1 (stereo not given),"activity change, negative = inhibition",at 106 µM (top of the series),inactive: -6.25%
CC(C)c1ccc(OP(C)(=O)Nc2ccc(SC(F)(F)F)cc2)cc1 (stereo not given),"activity change, negative = inhibition",at 106 µM (top of the series),inactive: -5.9%
CP(=O)(Nc1ccccc1F)Oc1ccccc1 (stereo not given),"activity change, negative = inhibition",at 106 µM (top of the series),inactive: -7.55%
O=C(OCCN1CCN(CCOCc2ccccc2)CC1)C(O)(c1ccccc1)c1ccccc1,"activity change, negative = inhibition",at 53 µM (top of the series),inactive: -2.36%
CCC(C)(OO)OOC(C)(CC)OO (stereo not given),"activity change, negative = inhibition",at 106 µM (top of the series),inactive: 5.24%
same,"activity change, negative = inhibition",at 201 µM (top of the series),inactive: -0.759%
Cc1cccc([N+](=O)[O-])c1[N+](=O)[O-],"activity change, negative = inhibition",at 106 µM (top of the series),inactive: 6.17%
same,"activity change, negative = inhibition",at 201 µM (top of the series),inactive: -6.16%
COc1ccc(OP(C)(=O)Nc2ccc(SC(F)(F)F)cc2)cc1 (stereo not given),"activity change, negative = inhibition",at 106 µM (top of the series),inactive: -7.48%
CCOC(=O)c1ccc(NP(C)(=O)Oc2ccc(F)cc2)cc1 (stereo not given),"activity change, negative = inhibition",at 106 µM (top of the series),inactive: 8.52%
CCN(CC)CCCOC(=O)C(O)(c1ccccc1)C1CCCCC1 (stereo not given),"activity change, negative = inhibition",at 106 µM (top of the series),inactive: 0.266%
CCCCCOc1ccc(NP(C)(=O)Oc2ccc(Cl)cc2Cl)cc1 (stereo not given),"activity change, negative = inhibition",at 106 µM (top of the series),inactive: 8.47%
CP(=O)(Nc1ccccc1)Oc1ccc(F)cc1 (stereo not given),"activity change, negative = inhibition",at 106 µM (top of the series),inactive: -15.7%
COc1ccc(OP(C)(=O)Nc2cccc(Br)c2)cc1 (stereo not given),"activity change, negative = inhibition",at 106 µM (top of the series),inactive: 3.84%
COc1ccc(NP(C)(=O)Oc2ccccc2OC)cc1 (stereo not given),"activity change, negative = inhibition",at 106 µM (top of the series),inactive: 3.65%
Cc1ccc([N+](=O)[O-])c([N+](=O)[O-])c1,"activity change, negative = inhibition",at 106 µM (top of the series),inactive: 3.78%
same,"activity change, negative = inhibition",at 201 µM (top of the series),inactive: -2.5%
Cc1c([N+](=O)[O-])cccc1[N+](=O)[O-],"activity change, negative = inhibition",at 106 µM (top of the series),inactive: -13%
same,"activity change, negative = inhibition",at 201 µM (top of the series),inactive: 4.64%
Cc1cc(-c2cccc3ccccc23)c(C)cn1.O=[N+]([O-])c1cc([N+](=O)[O-])c(O)c([N+](=O)[O-])c1,"activity change, negative = inhibition",at 106 µM (top of the series),inactive: 7.49%
O=[N+]([O-])c1ccc(OP2(=O)COCCO2)cc1 (stereo not given),"activity change, negative = inhibition",at 106 µM (top of the series),inactive: -1.19%
CP(=O)(Nc1ccc(SC(F)(F)F)cc1)Oc1ccc(F)cc1 (stereo not given),"activity change, negative = inhibition",at 106 µM (top of the series),inactive: -1.31%
CCOP(=O)(CC)OCC,"activity change, negative = inhibition",at 106 µM (top of the series),inactive: -8.18%
CCOP(C)(=S)SCC(=O)NC(C)(CC)C(=O)O (stereo not given),"activity change, negative = inhibition",at 106 µM (top of the series),inactive: 3%
CP(=O)(Nc1ccc2c(c1)OCCO2)Oc1ccccc1 (stereo not given),"activity change, negative = inhibition",at 106 µM (top of the series),inactive: 3.71%
Cc1ccccc1NP(C)(=O)Nc1ccccc1C,"activity change, negative = inhibition",at 106 µM (top of the series),inactive: 0.987%
COc1ccc(OP(C)(=O)Nc2ccc(Br)cc2)cc1 (stereo not given),"activity change, negative = inhibition",at 106 µM (top of the series),inactive: -0.407%
CP(=O)(Oc1ccccc1)N1CCOC1=O (stereo not given),"activity change, negative = inhibition",at 106 µM (top of the series),inactive: 8.31%
CCc1ccc(OP(C)(=O)Nc2cccnc2)cc1 (stereo not given),"activity change, negative = inhibition",at 106 µM (top of the series),inactive: -0.6%
COc1ccccc1OP(C)(=O)Nc1c(C)n(C)n(-c2ccccc2)c1=O (stereo not given),"activity change, negative = inhibition",at 106 µM (top of the series),inactive: 2.46%
OCCSCCO,"activity change, negative = inhibition",at 106 µM (top of the series),inactive: -4.96%
CP(=O)(Nc1ccc(Cl)cc1)Oc1ccc(F)cc1 (stereo not given),"activity change, negative = inhibition",at 106 µM (top of the series),inactive: -4.35%
COc1ccccc1OP(C)(=O)Nc1ccccc1Br (stereo not given),"activity change, negative = inhibition",at 106 µM (top of the series),inactive: -2.51%
CC(C)(C)c1ccc(OP(C)(=O)O)cc1,"activity change, negative = inhibition",at 106 µM (top of the series),inactive: -2.73%
CN(C)C(=O)c1c([N+](=O)[O-])cc([N+](=O)[O-])cc1[N+](=O)[O-],"activity change, negative = inhibition",at 106 µM (top of the series),inactive: 2.46%
CP(=O)(OC12CC3CC(CC(C3)C1)C2)OC12CC3CC(CC(C3)C1)C2,"activity change, negative = inhibition",at 106 µM (top of the series),inactive: 1.24%
CCOC(=O)c1ccc(NP(C)(=O)Oc2ccc(Cl)cc2)cc1 (stereo not given),"activity change, negative = inhibition",at 106 µM (top of the series),inactive: 5.35%
C/C1=C2N=C(/C=C3N=C(/C(C)=C4\[N-][C@@](C)([C@H]5N=C1[C@@](C)(CCC(=O)NC[C@H](C)OP(=O)([O-])O[C@@H]1[C@H](O)[C@H](n6cnc7cc(C)c(C)cc76)O[C@@H]1CO)[C@@H]5CC(N)=O)[C@](C)(CC(N)=O)[C@H]4CCC(N)=O)[C@@](C)(CC(N)=O)[C@@H]\3CCC(N)=O)C(C)(C)[C@@H]/2CCC(N)=O.[C-]#N.[Co+3],"activity change, negative = inhibition",at 53 µM (top of the series),inactive: -5.84%
Cc1cc(C)cc(OP(C)(=O)Nc2cccc(C(F)(F)F)c2)c1 (stereo not given),"activity change, negative = inhibition",at 53 µM (top of the series),inactive: 11.7%
COc1ccc(OP(C)(=O)Nc2ccccc2Br)cc1 (stereo not given),"activity change, negative = inhibition",at 106 µM (top of the series),inactive: -12.1%
COc1ccccc1OP(C)(=O)Nc1ccc(C)c(C)c1 (stereo not given),"activity change, negative = inhibition",at 106 µM (top of the series),inactive: -4.62%
Cc1nc2ccc3ccccc3c2o1.O=[N+]([O-])c1cc([N+](=O)[O-])c(O)c([N+](=O)[O-])c1,"activity change, negative = inhibition",at 106 µM (top of the series),inactive: -28%
CP(=O)(OCCOc1ccccc1)OCCOc1ccccc1,"activity change, negative = inhibition",at 106 µM (top of the series),inactive: -2.24%
COc1ccccc1OP(C)(=O)Nc1ccc(Br)cc1 (stereo not given),"activity change, negative = inhibition",at 106 µM (top of the series),inactive: -3.9%
CN(C)CCOC(=O)C(O)(c1ccccc1)C1CCCC1 (stereo not given),"activity change, negative = inhibition",at 106 µM (top of the series),inactive: -6.03%
COc1ccc(OP(C)(=O)Nc2ccccn2)cc1 (stereo not given),"activity change, negative = inhibition",at 106 µM (top of the series),inactive: -4.52%
Cc1c(NP(C)(=O)Oc2ccc(C(C)C)cc2)c(=O)n(-c2ccccc2)n1C (stereo not given),"activity change, negative = inhibition",at 106 µM (top of the series),inactive: 0.654%
O=[N+]([O-])c1cc([N+](=O)[O-])c(Nc2ccccn2)c([N+](=O)[O-])c1,"activity change, negative = inhibition",at 106 µM (top of the series),inactive: -4.19%
CCc1ccc(OP(C)(=O)O)cc1,"activity change, negative = inhibition",at 106 µM (top of the series),inactive: -7.31%
CP(=O)(Nc1ccccn1)Oc1ccccc1 (stereo not given),"activity change, negative = inhibition",at 106 µM (top of the series),inactive: 1.6%
COc1ccccc1OP(C)(=O)Nc1ccc(C)cc1C (stereo not given),"activity change, negative = inhibition",at 106 µM (top of the series),inactive: -5.75%
